Measured values as given in US20100190851A1, “Use of Entacapone in cosmetic, dermatological and pharmaceutical compositions” (priority 2007, published 2010).

Experiments:
[1] = target: T1, human P-Selectin-IgG-chimera (Homo sapiens, UniProt P16109); experiment: Sialyl Lewis^X Tyrosine Sulfate Assay (sLe^X TSA), P-selectin; settings: binding of P-selectin chimera to sLe^X-tyrosine sulfate polyacrylamide
T1 construct: fused on or other part: human IgG Fc part, fused on as a capture and dimerising handle (captured by goat anti human Fc antibody)
T1 sequence (P16109 42-195 limits assumed): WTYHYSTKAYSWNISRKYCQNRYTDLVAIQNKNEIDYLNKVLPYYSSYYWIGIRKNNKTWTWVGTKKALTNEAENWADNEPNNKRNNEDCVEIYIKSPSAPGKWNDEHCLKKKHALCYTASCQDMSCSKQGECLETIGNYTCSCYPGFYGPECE
Protocol: Sialyl Lewis^X Tyrosine Sulfate Assay (sLe^X TSA):
Compound of formula (I) is assayed on a molecular level for the ability to inhibit the binding of P- and L-selectin chimeric molecules to sLe^X and tyrosinesulfate residues linked to a polymeric matrix as a PSGL-1 substitute. IC50-values are determined.
Microtiter plates are coated overnight in carbonate buffer pH9.6 with goat anti human Fc mAB (10 μg/ml). After washing in assay buffer (25 mM 4-(2-hydroxyethyl)-1-piperazineethanesulfonic acid (HEPES), 150 mM NaCl, 1 mM CaCl2 pH7.4) and blocking (3% bovine serum albumin (BSA) in assay buffer) plates are incubated for 2 h at 37° C. with human P-Selectin-IgG-chimera (0.61 nM respectively 150 ng/mL) or human L-Selectin-IgG-chimera (0.61 nM respectively 89 ng/mL). 5 μl of sLe^X-tyrosine sulfate polyacrylamide (1 mg/ml) carrying 15% sLe^X, 10% Tyrosine-sulfate and 5% biotin is complexed with 20 μl Streptavidin-Peroxidase solution (1 mg/ml) and 25 μl assay buffer without CaCl2. […]
After incubation for 2 h at 37° C., wells are washed for six times with in assay buffer incl. […] Bound sLe^X-Tyrosine sulfate ligand complex is determined by measuring optical density at 450 nm vs. 620 nm in a Fusion alpha-FP reader (sold from Packard Bioscience, Dreieich, Germany). […]

[2] = system: human E-selectin-IgG chimera; experiment: Flow chamber assay, attachment of HL-60 cells to E-selectin; type: cell-based; parameters: dose or concentration left out as unconfirmed; settings: flow shear 1 dyne/cm^2; after 5 minutes continuous flow
Protocol: (§1) Flow Chamber Assay/Cell Adhesion and Rolling under Flow Conditions
(§2) To assess the capability of compound of formula (I) to inhibit cell binding under dynamic conditions resembling the flow in a blood vessel, flow chamber assays addressing/testing binding of HL-60 cells/various cell lines to P-selectin, and E-selectin chimeric molecules are performed.
(§3) Cell attachment under flow conditions is determined using a parallel flow chamber system. […]
(§4) After washing with assay buffer (“Roswell Park Memorial Institute 1640” (RPMI 1640)+10 mM HEPES) the dish is fitted into a parallel plate laminar flow chamber (sold from Glycotech, Rockville, Md.) and mounted on an inverted phase-contrast microscope (sold from Olympus, Hamburg, Germany) equipped with a CCD camera (JVC) that is connected to a PC. […] The flow rate is then decreased resulting in a calculated flow shear of 1 dyne/cm^2. Video sequences of 10 low power fields are digitally recorded after 5 minutes continuous flow. The percentage of inhibition is calculated from the mean number of cells per field that attached to the coated dish surface in the presence versus absence of compound of formula (I) of at independent experiments. […]

[3] = system: human P-selectin-IgG chimera; experiment: Flow chamber assay, attachment of HL-60 cells to P-selectin; type: cell-based; parameters: dose or concentration left out as unconfirmed; settings: flow shear 1 dyne/cm^2; after 5 minutes continuous flow
Protocol: as §1, §2, §3, §4

IC50 [1]: > 3.6 mM
Substance: sialyl Lewis X [sLe^X]
% inhibition of attachment of HL-60 cells, E-Selectin [2]: 32%
% inhibition of attachment of HL-60 cells, P-Selectin [3]: n.s.
